# In ChEMBL document CHEMBL2424640, “Dihydrothiazolopyridone derivatives as a novel family of positive allosteric modulators of the metabotropic glutamate 5 (mGlu5) receptor” (J Med Chem, 2013):
# Sequences of proteins named here, by UniProt entry; tags and fusion partners are left off.
# UniProt P41594, whole entry: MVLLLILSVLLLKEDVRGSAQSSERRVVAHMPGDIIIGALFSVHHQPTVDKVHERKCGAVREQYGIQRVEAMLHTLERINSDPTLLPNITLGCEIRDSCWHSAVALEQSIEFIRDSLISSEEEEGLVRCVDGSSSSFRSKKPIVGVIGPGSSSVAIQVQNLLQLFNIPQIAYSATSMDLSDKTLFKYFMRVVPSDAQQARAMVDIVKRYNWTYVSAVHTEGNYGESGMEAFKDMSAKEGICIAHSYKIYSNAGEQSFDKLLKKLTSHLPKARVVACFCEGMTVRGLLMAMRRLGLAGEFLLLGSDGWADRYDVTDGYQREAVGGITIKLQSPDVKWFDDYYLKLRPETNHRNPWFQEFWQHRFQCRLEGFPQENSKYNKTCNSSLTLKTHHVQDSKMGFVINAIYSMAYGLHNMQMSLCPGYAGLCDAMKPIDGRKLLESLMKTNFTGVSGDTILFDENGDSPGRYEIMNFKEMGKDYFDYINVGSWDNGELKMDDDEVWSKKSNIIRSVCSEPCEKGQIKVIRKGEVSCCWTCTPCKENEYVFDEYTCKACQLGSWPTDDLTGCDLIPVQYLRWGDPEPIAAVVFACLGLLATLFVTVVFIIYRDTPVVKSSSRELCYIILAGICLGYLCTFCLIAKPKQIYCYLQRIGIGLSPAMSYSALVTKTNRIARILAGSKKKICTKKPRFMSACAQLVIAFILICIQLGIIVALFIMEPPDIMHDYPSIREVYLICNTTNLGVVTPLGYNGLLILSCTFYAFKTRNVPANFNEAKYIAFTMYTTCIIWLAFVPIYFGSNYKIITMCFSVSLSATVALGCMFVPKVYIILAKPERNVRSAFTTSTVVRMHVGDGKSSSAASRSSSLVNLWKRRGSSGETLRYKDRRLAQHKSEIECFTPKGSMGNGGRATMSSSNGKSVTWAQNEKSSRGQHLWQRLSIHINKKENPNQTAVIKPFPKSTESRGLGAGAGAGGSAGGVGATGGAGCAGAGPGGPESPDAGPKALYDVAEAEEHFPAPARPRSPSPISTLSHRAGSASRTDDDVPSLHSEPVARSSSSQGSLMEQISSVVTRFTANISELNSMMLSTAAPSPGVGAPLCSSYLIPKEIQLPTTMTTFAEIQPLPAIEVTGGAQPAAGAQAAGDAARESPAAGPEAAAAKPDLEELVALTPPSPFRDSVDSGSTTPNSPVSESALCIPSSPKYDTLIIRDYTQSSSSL
# pEC50: −log10 of the molar value.
# Biological target: Metabotropic glutamate receptor 5 (Homo sapiens, UniProt P41594)
compound,measurement,value
N#Cc1cccc(C(=O)Nc2cc(-c3ccccc3)nn2-c2ccccc2)c1,pEC50,6.75
